Measured values from US9453051B2, “Cyclosporin derivatives” (priority 2011, dated 2016).

target: calcineurin (Homo sapiens, UniProt P62937+P63098+Q08209); experiment: Inhibition of the phosphatase activity of calcineurin (scintillation-proximity-assay, in presence of Cyp18);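 note: calcineurin dephosphorylation of a ³³P-labelled RII phosphopeptide, captured on streptavidin-coated wells and read by scintillation counting, with uninhibited enzyme activity taken as 100%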

Row | Compound | IC50 [µM]
1 | CCCCOC(=O)c1ccc2[nH]c(C[C@@H](C)[C@@H](O)[C@H]3C(=O)N[C@@H](CC)C(=O)N(C)CC(=O)N(C)[C@@H](CC(C)C)C(=O)N[C@@H](C(C)C)C(=O)N(C)[C@@H](CC(C)C)C(=O)N[C@@H](C)C(=O)N[C@H](C)C(=O)N(C)[C@@H](CC(C)C)C(=O)N(C)[C@@H](CC(C)C)C(=O)N(C)[C@@H](C(C)C)C(=O)N3C)nc2c1 [Compound 11] | 4.7
2 | CC[C@@H]1NC(=O)[C@H]([C@H](O)[C@H](C)Cc2nc3nc(S)nc(O)c3[nH]2)N(C)C(=O)[C@H](C(C)C)N(C)C(=O)[C@H](CC(C)C)N(C)C(=O)[C@H](CC(C)C)N(C)C(=O)[C@@H](C)NC(=O)[C@H](C)NC(=O)[C@H](CC(C)C)N(C)C(=O)[C@H](C(C)C)NC(=O)[C@H](CC(C)C)N(C)C(=O)CN(C)C1=O [Compound 17] | > 10
3 | CC[C@@H]1NC(=O)[C@H]([C@H](O)[C@H](C)Cc2nc3cccc(C(=O)O)c3[nH]2)N(C)C(=O)[C@H](C(C)C)N(C)C(=O)[C@H](CC(C)C)N(C)C(=O)[C@H](CC(C)C)N(C)C(=O)[C@@H](C)NC(=O)[C@H](C)NC(=O)[C@H](CC(C)C)N(C)C(=O)[C@H](C(C)C)NC(=O)[C@H](CC(C)C)N(C)C(=O)CN(C)C1=O [Compound 28] | > 10
4 | CC[C@@H]1NC(=O)[C@H]([C@H](O)[C@H](C)Cc2nc3ccc(C(=O)O)cc3n2C)N(C)C(=O)[C@H](C(C)C)N(C)C(=O)[C@H](CC(C)C)N(C)C(=O)[C@H](CC(C)C)N(C)C(=O)[C@@H](C)NC(=O)[C@H](C)NC(=O)[C@H](CC(C)C)N(C)C(=O)[C@H](C(C)C)NC(=O)[C@H](CC(C)C)N(C)C(=O)CN(C)C1=O [Compound 37] | > 10
5 | CC[C@@H]1NC(=O)[C@H]([C@H](O)[C@H](C)Cc2nc3ccc4c(S(=O)(=O)O)cccc4c3[nH]2)N(C)C(=O)[C@H](C(C)C)N(C)C(=O)[C@H](CC(C)C)N(C)C(=O)[C@H](CC(C)C)N(C)C(=O)[C@@H](C)NC(=O)[C@H](C)NC(=O)[C@H](CC(C)C)N(C)C(=O)[C@H](C(C)C)NC(=O)[C@H](CC(C)C)N(C)C(=O)CN(C)C1=O [Compound 45] | > 10
6 | CC[C@@H]1NC(=O)[C@H]([C@H](O)[C@H](C)Cc2nc3cc(C(=O)NCCOCCOCCN)ccc3[nH]2)N(C)C(=O)[C@H](C(C)C)N(C)C(=O)[C@H](CC(C)C)N(C)C(=O)[C@H](CC(C)C)N(C)C(=O)[C@@H](C)NC(=O)[C@H](C)NC(=O)[C@H](CC(C)C)N(C)C(=O)[C@H](C(C)C)NC(=O)[C@H](CC(C)C)N(C)C(=O)CN(C)C1=O [Compound 66] | > 10
